This assay deals with T1, equine serum BChE (Equus caballus, UniProt P81908).
T1 construct: 2 μL of equine serum BChE (0.05 U/mL) solution; from tissue; host or cells: equine serum
In words: Cholinesterase inhibitory activity (Ellman), BChE. It is filed as biochemical. The protocol: Cholinesterase was assayed according to standard procedures by following the hydrolysis of acetylthiocholine iodide (AtCh) or butyrylthiocholine iodide (BtCh) by monitoring formation of 5-thio-2-nitrobenzoate from 5-5'-dithiobis(2-nitrobenzoic acid) spectrometrically at 412 nm. The reaction mixture contained 100 mM sodium phosphate buffer (pH 8.0), 20 μL of test sample solution and either 2 μL of human erythrocyte AChE (0.25 U/mL) or 2 μL of equine serum BChE (0.05 U/mL) solution, which were mixed and incubated for 10 min at room temperature. Assays were then initiated with the addition of 30 μL 5-5'-dithiobis(2-nitrobenzoic acid) (3.3 mM) and, respectively, 20 μL of AtCh (1 mM), and 7 μL of BtCh (1 mM). All assays were performed in triplicate. […] Kinetic parameters were determined using the Lineweaver-Burk double-reciprocal-plot method at increasing concentration of substrates and inhibitors.
For orientation: In Ellman's method for cholinesterases, released thiocholine reacts with DTNB.

Protein sequences, listed by entry. Tags and fused reporters are not part of them.
UniProt P81908, whole entry: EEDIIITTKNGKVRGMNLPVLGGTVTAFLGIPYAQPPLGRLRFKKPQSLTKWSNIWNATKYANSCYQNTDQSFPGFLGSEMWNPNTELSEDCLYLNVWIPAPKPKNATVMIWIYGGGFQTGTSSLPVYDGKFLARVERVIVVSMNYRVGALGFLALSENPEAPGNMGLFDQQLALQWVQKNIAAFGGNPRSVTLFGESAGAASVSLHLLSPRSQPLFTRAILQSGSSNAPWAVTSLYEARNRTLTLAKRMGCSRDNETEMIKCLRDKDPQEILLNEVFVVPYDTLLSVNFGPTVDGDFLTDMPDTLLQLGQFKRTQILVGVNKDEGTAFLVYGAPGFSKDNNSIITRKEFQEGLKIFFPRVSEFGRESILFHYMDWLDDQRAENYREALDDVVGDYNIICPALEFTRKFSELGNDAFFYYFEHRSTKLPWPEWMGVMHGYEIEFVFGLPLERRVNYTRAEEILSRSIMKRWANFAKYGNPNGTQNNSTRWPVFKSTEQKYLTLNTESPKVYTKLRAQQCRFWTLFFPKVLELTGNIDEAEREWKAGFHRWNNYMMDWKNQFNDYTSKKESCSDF

By IC50 is commonly meant the point on the concentration scale where inhibition reaches its midpoint. In the case of `CNC(=O)Oc1ccc2c(c1)[C@]1(C)CCN(C)[C@@H]1N2C` [Eserin, eserine, reference compound], the IC50 worked out at 3.7 µM.
